Source: PubChem BioAssay (NCI)
This is a selection; strong and weak results do not stand in their true shares.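 48-hour exposure, single concentration, 96-well plates; percent growth endpoint where 0 means no net growth. Active: below 10.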 The source made the active and inactive calls.

Legend:
Assay in all cases: NCI-60 one-dose screen, 48 h (100 = growth as untreated, 0 = no growth, -100 = all killed)
Conditions in all cases: 10 µM unless noted
NCI-H23 lung = tested on: NCI-H23 lung
NCI-H226 lung = tested on: NCI-H226 lung
NCI-H322M lung = tested on: NCI-H322M lung
HOP-62 NSCLC = tested on: HOP-62 NSCLC
NCI-H460 lung = tested on: NCI-H460 lung
HOP-92 NSCLC = tested on: HOP-92 NSCLC
NCI-H522 lung = tested on: NCI-H522 lung
A549/ATCC NSCLC = tested on: A549/ATCC NSCLC
786-0 renal = tested on: 786-0 renal
COLO 205 colon = tested on: COLO 205 colon
DU-145 prostate = tested on: DU-145 prostate
K-562 leukemia = tested on: K-562 leukemia
MALME-3M melanoma = tested on: MALME-3M melanoma
MDA-MB-231 breast = tested on: MDA-MB-231 breast
RXF 393 renal = tested on: RXF 393 renal
SF-268 CNS = tested on: SF-268 CNS
SF-539 CNS = tested on: SF-539 CNS
UACC-257 melanoma = tested on: UACC-257 melanoma
M14 melanoma = tested on: M14 melanoma
SF-295 CNS = tested on: SF-295 CNS

| SMILES | growth (NCI-H23 lung) | growth (NCI-H226 lung) | growth (NCI-H322M lung) | growth (HOP-62 NSCLC) | growth (NCI-H460 lung) | growth (HOP-92 NSCLC) | growth (NCI-H522 lung) | growth (A549/ATCC NSCLC) | growth (786-0 renal) | growth (COLO 205 colon) | growth (DU-145 prostate) | growth (K-562 leukemia) | growth (MALME-3M melanoma) | growth (MDA-MB-231 breast) | growth (RXF 393 renal) | growth (SF-268 CNS) | growth (SF-539 CNS) | growth (UACC-257 melanoma) | growth (M14 melanoma) | growth (SF-295 CNS) |
| --- | --- | --- | --- | --- | --- | --- | --- | --- | --- | --- | --- | --- | --- | --- | --- | --- | --- | --- | --- | --- |
| O=C(N(CCCl)CCCl)C(Cl)(Cl)Cl | inactive: 113% | inactive: 91.8% | inactive: 126% | inactive: 113% | inactive: 107% | inactive: 122% | inactive: 85.9% | inactive: 98.3% | inactive: 105% | inactive: 113% | inactive: 109% | inactive: 108% | inactive: 114% | inactive: 114% | inactive: 99.9% | inactive: 103% | inactive: 92.7% | inactive: 107% | inactive: 112% |  |
| CN1C(=O)N(C)P12(Cl)N(C)C(=O)N2C | inactive: 102% | inactive: 102% | inactive: 113% | inactive: 119% | inactive: 105% | inactive: 84% | inactive: 96.4% | inactive: 95.1% | inactive: 102% | inactive: 111% | inactive: 105% | inactive: 106% | inactive: 112% | inactive: 109% | inactive: 109% | inactive: 101% | inactive: 111% | inactive: 100% | inactive: 105% | inactive: 108% |
| CC(C)N(CCCl)/N=N/c1nc2nc[nH]c(=O)c2[nH]1 | inactive: 98.6% | inactive: 113% | inactive: 91.9% | inactive: 97.3% | inactive: 111% | inactive: 110% | inactive: 85.4% | inactive: 89.3% | inactive: 98.7% | inactive: 124% | inactive: 110% | inactive: 96.8% | inactive: 92.3% | inactive: 105% | inactive: 143% | inactive: 105% | inactive: 102% | inactive: 101% | inactive: 109% | inactive: 98.4% |
| CCOP(=O)(Nc1ccccc1Cl)OCC | inactive: 90.8% | inactive: 94.4% | inactive: 88.3% | inactive: 90.1% | inactive: 102% | inactive: 76.1% | inactive: 92.1% | inactive: 89.9% | inactive: 104% | inactive: 101% | inactive: 98.6% | inactive: 107% | inactive: 97.2% | inactive: 117% | inactive: 110% | inactive: 91.2% | inactive: 103% | inactive: 100% | inactive: 96.1% | inactive: 102% |
| Nc1ccc([As](=O)(O)c2ccc([N+](=O)[O-])cc2)cc1 | inactive: 101% | inactive: 94.9% | inactive: 108% | inactive: 94.2% | inactive: 113% | inactive: 83.8% | inactive: 140% | inactive: 106% | inactive: 101% | inactive: 103% | inactive: 110% | inactive: 106% | inactive: 105% | inactive: 97.1% | inactive: 82.4% | inactive: 113% | inactive: 101% | inactive: 52.6% | inactive: 101% | inactive: 106% |
| COc1ccc(C(=O)N(CCCl)CCCl)cc1OC | inactive: 104% | inactive: 103% | inactive: 111% | inactive: 108% | inactive: 105% | inactive: 93% | inactive: 70.2% | inactive: 101% | inactive: 100% | inactive: 108% | inactive: 118% | inactive: 87.5% | inactive: 114% | inactive: 124% | inactive: 117% | inactive: 109% | inactive: 95% | inactive: 106% | inactive: 104% |  |
| COc1cc([N+](=O)[O-])c([N+](=O)[O-])cc1N | inactive: 103% | inactive: 100% | inactive: 97.7% | inactive: 97.5% | inactive: 104% | inactive: 74.8% | inactive: 92.3% | inactive: 97.1% | inactive: 101% | inactive: 97.8% | inactive: 113% | inactive: 117% | inactive: 101% | inactive: 102% | inactive: 110% | inactive: 104% | inactive: 94.7% | inactive: 98% | inactive: 102% | inactive: 99.8% |
| CC(C)(NCCCl)C(O)c1ccccc1 (stereo not drawn) | inactive: 82.1% | inactive: 88.2% | inactive: 98.4% | inactive: 105% | inactive: 87.9% | inactive: 69.5% | inactive: 58.1% | inactive: 71.3% | inactive: 102% | inactive: 84.9% | inactive: 96.9% | inactive: 87.1% | inactive: 105% | inactive: 90.5% | inactive: 97.2% | inactive: 101% | inactive: 94.2% |  | inactive: 91.7% | inactive: 101% |
| CC(Cl)CN(CC(C)Cl)C(=O)c1ccccc1 (stereo not drawn) | inactive: 102% | inactive: 93.2% | inactive: 107% | inactive: 106% | inactive: 110% | inactive: 81.1% | inactive: 94.5% | inactive: 101% | inactive: 107% | inactive: 103% | inactive: 103% | inactive: 100% | inactive: 102% | inactive: 88% | inactive: 115% | inactive: 95.6% | inactive: 103% | inactive: 110% | inactive: 103% | inactive: 106% |
| ClCCNCC1COc2ccccc2O1 (stereo not drawn) | inactive: 99.5% | inactive: 107% | inactive: 107% | inactive: 102% | inactive: 105% | inactive: 103% | inactive: 93.5% | inactive: 85.5% | inactive: 101% | inactive: 107% | inactive: 102% | inactive: 103% | inactive: 103% | inactive: 101% | inactive: 103% | inactive: 91.4% | inactive: 101% |  | inactive: 104% | inactive: 98.8% |
| O=[N+]([O-])c1ccc(Oc2cccc(Oc3ccc([N+](=O)[O-])cc3[N+](=O)[O-])c2)c([N+](=O)[O-])c1 | inactive: 66.8% | inactive: 68.8% | inactive: 98% | inactive: 99.5% | inactive: 106% | inactive: 66.9% | inactive: 21.5% | inactive: 95.5% | inactive: 64.9% | inactive: 105% | inactive: 98.6% | active: 5.47% | inactive: 69.2% | inactive: 65.9% | inactive: 88.9% | inactive: 75.8% | inactive: 97% | inactive: 93.1% | inactive: 80.4% | inactive: 107% |
| ClP1(Cl)=NP(Cl)(Cl)=NP(Cl)(Cl)=N1 | inactive: 104% | inactive: 107% | inactive: 104% | inactive: 109% | inactive: 99.8% | inactive: 96% | inactive: 84% | inactive: 103% | inactive: 115% | inactive: 112% | inactive: 115% | inactive: 108% | inactive: 117% | inactive: 106% | inactive: 118% | inactive: 102% |  | inactive: 103% | inactive: 99% | inactive: 109% |
| CCOC(=O)c1sc2ncnc(NCCCl)c2c1C | inactive: 98.9% | inactive: 103% | inactive: 100% | inactive: 88.7% | inactive: 100% | inactive: 71.9% | inactive: 109% | inactive: 91.1% | inactive: 106% | inactive: 101% | inactive: 104% | inactive: 101% | inactive: 114% | inactive: 90.3% | inactive: 103% | inactive: 97.7% | inactive: 94.9% | inactive: 116% | inactive: 115% |  |
| ClCCN1Cc2ccccc2C1 | inactive: 99% | inactive: 87% | inactive: 94.7% | inactive: 102% | inactive: 91.7% | inactive: 80.1% | inactive: 85% | inactive: 96.2% | inactive: 103% | inactive: 96.5% | inactive: 101% | inactive: 118% | inactive: 95.2% | inactive: 95.8% | inactive: 98.1% | inactive: 103% |  | inactive: 98.6% | inactive: 95.1% | inactive: 97.7% |
